{
  "source": "patent US20230140691A1",
  "about": "“OPTICALLY CLEAR, IN-SITU FORMING BIODEGRADABLE NANO-CARRIERS FOR OCULAR THERAPY, AND METHODS USING SAME” (Rowan University, priority 2017, published 2023)",
  "assay": "In vitro drug release from PLGA-PEG-PLGA hydrogel in microfluidic devices at physiological flow rate",
  "type": "physicochemical",
  "conditions": "25 (w/v) % hydrogel, 35° C.",
  "protocol": "The final volume of the hydrogel solution with the compound of interest was constrained to 100 μL because of the anatomical space in the lens capsule. Physiological flow rate (2.4 μl/min) was achieved using microfluidic devices. The devices resemble the anatomical dimensions of both the anterior and posterior chamber of the human eye, as well as the physiological dynamics of the aqueous humor flow. All of the release studies were conducted at 35° C. • a. Dexamethasone (Hydrophobic): 100 μL of PLGA-PEG-PLGA hydrogel solution at 25 (w/v) % was mixed with 100 μg of dexamethasone. The collected samples were analyzed via HPLC. • b. […] The collected samples were analyzed via fluoresce spectroscopy at an excitation, filter, and emission wavelengths (nm) of 483, 515 524, respectively • c. Nucleic acid conjugates (Hydrophilic): 62 μL of nucleic acid conjugates in PBS solution (31 μg) were mixed with 38 μL of hydrogel solution at a concentration of 25 (w/v) %. Because the nucleic acid conjugates were already dissolved in PBS, the hydrogel solution was diluted down to 14 (w/v) %. The collected samples were analyzed via fluorescence spectroscopy at an excitation, filter, and emission wavelengths (nm) of 642, 665, and 670, respectively. • d. Hyaluronic acid (Hydrophilic): 30 μL of hyaluronic acid (HA, 800 KDa) stock solution at a concentration of 0.5 mg/mL in PBS (15 ug of HA) was mixed with 56 μL of hydrogel solution at a concentration of 25 (w/v) %. In addition, 14 μL of PBS were added to diluted the hydrogel solution down to 14 (w/v) %. Samples containing PLL were prepared by adding to the already mentioned composition 10 mg of PLL (10 (w/v) % PLL). The collected samples were analyzed via fluorescence spectroscopy at an excitation, filter, and emission wavelengths (nm) of 483, 495, 518, respectively.",
  "data": [
    {"substance": "FITC-Dextran", "values": [
      {"measurement": "release rate of FITC-dextran from hydrogel", "setting": "first 55 hours, 100 μg FITC-Dextran (150 KDa) loaded", "result": "0.84 ± 0.14", "unit": "µg/h"},
      {"measurement": "total amount loaded released", "setting": "in 5 days (222 hours as printed)", "result": "about 52%"},
      {"measurement": "release rate of FITC-dextran from hydrogel", "setting": "thereafter (after first 55 hours)", "result": "0.23 ± 0.02", "unit": "µg/h"}
    ]}
  ]
}
